The values below are quoted from earlier work in paper PMC8509707.

Data set [1] concerns the target PIRT (Homo sapiens) (UniProt P0C851). The settings on record: cited from earlier work.
The target is the same in data set [2]. The settings on record: cited from earlier work. The source holds these as a separate data set.

Where two headings read alike, the source gives them in different places.

In general, Kd refers to the equilibrium constant for the complex coming apart. Calmodulin (from UniProt P0DP23): the Kd in data set [1] was 0.35 µM; in data set [2], 60 µM.
